Earlier results on one substance are cited in patent US9469616B2, “Cyclic compounds and methods of making and using the same” (Cellceutix Corporation, priority 2011, dated 2016).

In this series the test system is human RBCs. The note with it: Data from Thaker, et al., J. Med. Chem., 2011, 54, 2241; cited from earlier work.

As to MSI-78, the concentration for 50% haemolysis (HC50) is 120 µg/mL.
